Data published in patent US20230321246A1, “HIGH-STRENGTH ORAL TAXANE COMPOSITIONS AND METHODS” (ATHENEX HK INNOVATIVE LIMITED, priority 2017, published 2023).

Assay: in vivo
Conditions: male, Beagle, dog, iv, 2 mg/kg

half-life: 8.7 h
Structure (SMILES): CC(=O)O[C@H]1C(=O)[C@@]2(C)[C@H]([C@H](OC(=O)c3ccccc3)[C@]3(O)C[C@H](OC(=O)[C@H](O)[C@@H](NC(=O)c4ccccc4)c4ccccc4)C(C)=C1C3(C)C)[C@]1(OC(C)=O)CO[C@@H]1C[C@@H]2O [Paclitaxel, paclitaxel]
